Columns and labels:
MHCC97H = test: cells; conditions: Homo sapiens, 72 h
HCCLM3 = test: cells; conditions: Homo sapiens, HCCLM3, 72 h
[1] = biological target: T1, Galactosylgalactosylxylosylprotein 3-beta-glucuronosyltransferase 3 (Homo sapiens) (UniProt O94766); conditions: MHCC97H, time 3.0 hrs
T1 sequence (whole entry): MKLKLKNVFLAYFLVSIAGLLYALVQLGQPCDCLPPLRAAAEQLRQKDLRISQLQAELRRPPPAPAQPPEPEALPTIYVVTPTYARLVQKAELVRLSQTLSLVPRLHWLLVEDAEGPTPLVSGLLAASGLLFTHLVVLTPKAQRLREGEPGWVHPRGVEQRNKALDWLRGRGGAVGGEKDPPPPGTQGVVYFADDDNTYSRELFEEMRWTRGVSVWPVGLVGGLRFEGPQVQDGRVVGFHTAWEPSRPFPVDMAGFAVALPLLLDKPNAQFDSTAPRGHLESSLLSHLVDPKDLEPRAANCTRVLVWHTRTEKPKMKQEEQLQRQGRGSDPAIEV

[2] = biological target: T1, Galactosylgalactosylxylosylprotein 3-beta-glucuronosyltransferase 3 (Homo sapiens); conditions: HCCLM3, time 3.0 hrs

| SMILES | IC50 (MHCC97H) [µM] | IC50 (HCCLM3) [µM] | Tm [1] [°C] | Tm [2] [°C] |
| --- | --- | --- | --- | --- |
| O=C(Nc1nc2c(ccc3ccccc32)s1)C(=O)Nc1nc2c(ccc3ccccc32)s1 | 6.19 | 43.1 | – | – |
| COC(=O)c1ccc2[nH]cc(C(=O)C(=O)NC3CCN(c4ccc(C)cc4Cl)C3=O)c2c1 (centres undefined) | – | – | 52 | > 61 |
